Literature values as cited in patent US10487348B2, “3-alpha-hydroxysteroid dehydrogenase mutants and process for the preparation of ursodeoxycholic acid” (Pharmazell GmbH, priority 2014, dated 2019).

Protein sequences, listed by entry. Tags and fused reporters are not part of them. Lines headed by an entry give the natural chain unless they say otherwise; changes in a name come on top.
UniProt A4ECA9: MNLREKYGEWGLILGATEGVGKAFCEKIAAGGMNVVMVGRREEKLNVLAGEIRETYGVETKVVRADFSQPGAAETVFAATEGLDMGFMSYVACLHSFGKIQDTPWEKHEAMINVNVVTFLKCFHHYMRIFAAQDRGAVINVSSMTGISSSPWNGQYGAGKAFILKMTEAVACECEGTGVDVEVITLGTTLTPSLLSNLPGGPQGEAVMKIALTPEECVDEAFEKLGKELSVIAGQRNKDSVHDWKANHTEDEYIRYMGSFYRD

Target: 7β-HSDH from Collinsella aerofaciens DSM 3979 (Collinsella aerofaciens, UniProt A4ECA9)
Conditions: 7β-HSDH wild type; value for the substrate/cofactor named; cited from earlier work

## C[C@H](CCC(=O)O)[C@H]1CC[C@H]2[C@@H]3C(=O)C[C@@H]4CC(=O)CC[C@]4(C)[C@H]3CC(=O)[C@]12C [DHCA, dehydrocholic acid]
  Km: 9.23 µM
